Assays:
[1] = system: interleukin-12 (IL-12) from brain homogenate; assay: Hangover study, IL-12 from brain homogenate, alcohol 1 day; type: in vivo, Wistar albino rats; design: concentration or dose not given beside the values; conditions: 1 Day alcohol
[2] = system: acetylcholinesterase activity of brain homogenate; conditions: Hangover study, 1 Day alcohol; ingredient amounts in mass concentration (%)

CC1(C(=O)O)CCC2(C)CCC3(C)C(=CC(=O)C4C5(C)CCC(OC6OC(C(=O)O)C(O)C(O)C6OC6OC(C(=O)O)C(O)C(O)C6O)C(C)(C)C5CCC43C)C2C1 (stereo not drawn) [0.3 GA, 18β-GA]
Brain IL12 Pro (Protection) [1]: 20.65% | ACHe Pro (Protection) [2]: 17.19%

From US10456359B2, “Synergistic beverage composition” (Harsha Chigurupati, priority 2015, dated 2019)
